Literature values in patent US8592481B2, “Gastric retentive gabapentin dosage forms and methods for using same” (Depomed, Inc., priority 2005, dated 2013).
Where two headings read alike, the source gives them in different places.

Question: For “1-(aminomethyl)cyclohexane acetic acid [gabapentin]”, which oral bioavailability (dose in the range of 300-400 mg) is on record?
Answer: approximately 60%

Question: And the oral bioavailability (dose of 1600 mg)?
Answer: 35%

Question: What about the “half-life (renal excretion)” value (single dose or multiple doses) of the same substance?
Answer: 5 to 7 h
